Reference: BindingDB's records for patent US9956214 (University of Washington Through Its Center For …, 2018)

Target: T1, Calcium-dependent protein kinase 1 (Cryptosporidium parvum, UniProt Q6S4W0)
T1 sequence (Q6S4W0 whole entry): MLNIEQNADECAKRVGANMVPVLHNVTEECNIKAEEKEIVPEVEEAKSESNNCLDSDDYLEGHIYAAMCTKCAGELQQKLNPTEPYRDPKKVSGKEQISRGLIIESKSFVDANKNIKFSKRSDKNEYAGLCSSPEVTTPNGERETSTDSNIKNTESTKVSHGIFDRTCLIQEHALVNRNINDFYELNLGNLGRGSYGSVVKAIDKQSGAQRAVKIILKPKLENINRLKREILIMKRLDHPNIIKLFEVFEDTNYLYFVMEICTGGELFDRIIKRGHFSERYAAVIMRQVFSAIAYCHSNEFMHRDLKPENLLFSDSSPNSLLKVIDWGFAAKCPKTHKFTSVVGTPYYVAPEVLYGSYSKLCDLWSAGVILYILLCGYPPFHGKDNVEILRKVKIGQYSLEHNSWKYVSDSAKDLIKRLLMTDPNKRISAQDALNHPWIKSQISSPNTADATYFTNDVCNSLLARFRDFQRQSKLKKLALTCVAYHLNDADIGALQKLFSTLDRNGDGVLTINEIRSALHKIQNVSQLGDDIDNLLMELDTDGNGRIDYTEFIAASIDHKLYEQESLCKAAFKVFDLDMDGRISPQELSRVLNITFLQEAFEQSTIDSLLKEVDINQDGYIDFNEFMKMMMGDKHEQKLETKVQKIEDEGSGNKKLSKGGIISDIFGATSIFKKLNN
Assay: Inhibition Assay

`CC(C)(C)n1cc(C(N)=O)c(-c2ccc3c(N)n[nH]c3c2)n1` [US9956214, Compound 28] gave an IC50 of 420 nM.
